From ChEMBL document CHEMBL5236544, “Furazans in Medicinal Chemistry” (J Med Chem, 2021)

Tested on: HeLa
Test: Antitumor activity against human HeLa cells xenografted in mouse model assessed as reduction in tumor growth at 60 mg/kg bid relative to control
Design: scale not given: the % may be the effect or the level left

Compound: COP(C)(=O)NCCCNc1nonc1/C(=N/O)Nc1ccc(F)c(Br)c1 (stereo unspecified)
- Activity: 73% and 68%

Values joined by “and” are separate entries in the source; they are usually repeats but may differ in a detail not shown here. Equal entries are not always repeated.
